This assay concerns the target recombinant human IDE (Homo sapiens, UniProt P14735). Description: IDE activity assay, degradation of fluorogenic peptide substrate FRET1. Format: biochemical. As to conditions: read-out: ki, nM (FRET1), FRET1 5 μM, n = 3.
Setting [1] is: Table 3, P2' and terminal group.

The chains behind the UniProt entries cited, without tags or fusion partners.
UniProt P14735, whole entry: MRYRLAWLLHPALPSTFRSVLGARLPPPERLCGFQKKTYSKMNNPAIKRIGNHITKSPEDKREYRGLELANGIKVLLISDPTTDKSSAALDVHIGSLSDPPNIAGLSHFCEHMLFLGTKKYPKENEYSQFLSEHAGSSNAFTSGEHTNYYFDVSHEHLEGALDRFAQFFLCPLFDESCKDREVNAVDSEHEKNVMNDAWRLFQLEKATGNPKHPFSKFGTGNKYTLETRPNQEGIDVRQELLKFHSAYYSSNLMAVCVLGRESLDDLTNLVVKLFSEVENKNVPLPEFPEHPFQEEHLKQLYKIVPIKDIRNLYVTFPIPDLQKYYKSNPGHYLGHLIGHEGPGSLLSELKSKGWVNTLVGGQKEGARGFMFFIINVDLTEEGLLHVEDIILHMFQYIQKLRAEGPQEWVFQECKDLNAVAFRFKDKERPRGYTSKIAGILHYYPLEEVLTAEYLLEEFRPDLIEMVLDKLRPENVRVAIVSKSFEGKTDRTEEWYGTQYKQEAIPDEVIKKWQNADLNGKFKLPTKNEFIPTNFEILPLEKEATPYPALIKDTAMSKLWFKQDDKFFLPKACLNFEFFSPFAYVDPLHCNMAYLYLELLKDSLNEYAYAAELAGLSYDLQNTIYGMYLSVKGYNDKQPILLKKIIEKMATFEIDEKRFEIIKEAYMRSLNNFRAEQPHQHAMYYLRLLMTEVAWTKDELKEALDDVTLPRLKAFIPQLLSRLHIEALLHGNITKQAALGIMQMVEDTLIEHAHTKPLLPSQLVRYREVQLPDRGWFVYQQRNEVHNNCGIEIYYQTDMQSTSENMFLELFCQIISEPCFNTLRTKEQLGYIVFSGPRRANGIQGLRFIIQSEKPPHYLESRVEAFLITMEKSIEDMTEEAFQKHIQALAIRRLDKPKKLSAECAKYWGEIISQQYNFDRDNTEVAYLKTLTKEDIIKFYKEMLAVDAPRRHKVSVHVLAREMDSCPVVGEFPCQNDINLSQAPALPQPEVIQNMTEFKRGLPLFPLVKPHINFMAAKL

Where two headings read alike, the source gives them in different places.

One may read the Ki as the equilibrium dissociation constant of an inhibitor or competing ligand from its target.

As for “(2R,3S)-N^1-((S)-1-((S)-1-Amino-3-(1H-indol-2-yl)-1-oxopropan-2-ylamino)-5-guanidino-1-oxopentan-2-yl)-N^4,3-dihydroxy-2-(naphthalen-2-ylmethyl)succinamide [inhibitor 10a]”, the Ki (Table 2, truncation) is 18000 ± 1100 nM. For “(2R,3S)-N^1-((S)-1-Amino-5-guanidino-1-oxopentan-2-yl)-N^4,3-dihydroxy-2-(naphthalen-2-ylmethyl)succinamide [inhibitor 12a]”, the Ki under setting [1] was above 33000 nM.

“(2S,3R)-N^1-((S)-1-((S)-1-amino-3-(1H-indol-2-yl)-1-oxopropan-2-ylamino)-5-guanidino-1-oxopentan-2-yl)-N^4,3-dihydroxy-2-(naphthalen-2-ylmethyl)succinamide [inhibitor 10b]”: for the setting “Table 2, truncation”, the Ki is 498 ± 10 nM. Consider “(2S,3R)-N^1-((S)-1-amino-5-guanidino-1-oxopentan-2-yl)-N^4,3-dihydroxy-2-(naphthalen-2-ylmethyl)succinamide [inhibitor 12b]”, for which the inhibition constant (Ki) under setting [1] was above 33000 nM.

For the origin of these results see publication PMC10165945 (Journal of medicinal chemistry, 2013).
